Screens deposited in PubChem BioAssay by National Center for Advancing Translational Sciences (NCATS).
A549 viability = kills or reduces viability of A549 cells in Nrf2 counter-screen; A549 ARE-Fluc cells, CellTiter-Fluor viability, 18-24 h; actives 0.16% (n = 390,000); AID 504648; Potency, µM (doses to about 46 µM), hits mostly inhibitors
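Cytotoxicity counterscreen: CellTiter-Fluor fluorescence was measured in A549 ARE_Fluc cells after 18-24 h of compound exposure in a concentration series. The subsequent BugLite luminescent read reports ARE-luciferase activity.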
miR-21 reporter = miR-21 reporter, rising signal; HeLa miR-21 FLuc reporter, luciferase, 48 h; Potency, µM (doses to about 38.3 µM); 340,000 tested, under 10 active; AID 2288; active = well fitted rising curve with a large enough effect; inconclusive = small, poorly fitted or top-dose-only effect; inactive = no such curve, though single readings can be large or run the other way;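 further: miR-21 action dims this reporter so a rising signal means less miR-21 action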
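Luminescence from a firefly luciferase reporter carrying a miR-21 binding site downstream, stably expressed under a CMV promoter in HeLa cells that make miR-21 endogenously, reports miRNA modulation after 48 h compound exposure up to approximately 40uM final.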
ClpP mod = qHTS Assay for Activators of ClpP; ATP-dependent Clp protease proteolytic subunit (Bacillus subtilis (strain 168)), P80244; purified B. subtilis ClpP, FRET peptide cleavage, 20 min; Potency, µM (top dose mostly 57.5 µM); actives 1.9% (n = 340,000); AID 651965, 2013; active = well fitted falling curve with a large enough effect; inconclusive = small, poorly fitted or top-dose-only effect; inactive = no such curve, though single readings can be large or run the other way; also: the source files actives as falling curves though it sought activators and does not explain the sign; nearly all actives have a fitted effect of over 65% in size
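ClpP 10 microg/mL final, pH 8 Tris/KCl buffer with BSA, glycerol, Tween-20; compound pinned in; FRET-FV substrate; RT 20 min; Ex320/Em430; ΔFRET vs ADEP 5.8 microM, DMSO, no enzyme.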
Nrf2 activator = activators of Nrf2 (ARE) signaling; Potency, µM (series often up to 46.1 µM), usual class: activators; actives 0.31% (n = 410,000); AREc32 ARE-luciferase reporter (MCF7-derived line), luminescence, 24 h; also: nearly all actives have a fitted effect of over 65% in size
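AREc32_Fluc, 1000 cells/well, OPTI-MEM + 5% FBS, o/n 37 deg C 5% CO2; 23 nL cpd by pin tool, 24 hr; Steady-Glo 30 min RT, luminescence.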
Nrf2 inh = Nrf2 pathway inhibition | A549 ARE-Fluc reporter, luciferase luminescence, 18-24 h | Potency, µM (top dose mostly 46 µM), hits mostly inhibitors | actives 2.1% (n = 360,000); also: nearly all actives have a fitted effect of over 60% in size
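Quantitative HTS in A549 cells stably bearing an antioxidant response element-firefly luciferase construct. Inhibition of Nrf2-driven transcription was scored by luminescence after 18-24 h of compound exposure at 37 °C.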
TCR activator = activates T cell receptor signaling; primary human leukocytes, anti-CD3, IL-2 HTRF, 48 h; Potency, µM (highest dose often 9.22 µM), hits mostly activators; 330,000 tested, under 10 active
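IL-2 produced over 48 hr by a-CD3 bead-stimulated primary human leukocytes exposed to compounds was detected with a homogeneous time-resolved FRET immunoassay, 665nm acceptor signal after 320nm excitation.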
A number is an active result. This is a sample that favours compounds with a hit; in the whole collection about 3.7% have one here. Unless noted, calls follow the shape of the dose curve; as a rule, active = well fitted curve in the direction sought with a large enough effect; inconclusive = small, poorly fitted or top-dose-only effect, or another doubt; inactive = no such curve, though single readings can be large; an effect the other way counts as inactive or inconclusive.

C#CCSc1nnc(-c2cccc3ccccc23)o1 was read as A549 viability inactive, ClpP mod 31.6µM, Nrf2 activator 11.2µM, Nrf2 inh inactive and TCR activator inactive.
CCOc1ccc(N2CC(c3nc4ccccc4n3CCCOc3ccccc3)CC2=O)cc1 (centres undefined) was read as A549 viability inconclusive, miR-21 reporter inconclusive, ClpP mod inactive, Nrf2 activator inactive and Nrf2 inh inconclusive.
Cc1ccccc1-n1nc2c(c1NC(=O)C(C)(C)C)CS(=O)(=O)C2 was read as A549 viability inactive, miR-21 reporter inactive, ClpP mod inactive, Nrf2 activator inactive, Nrf2 inh inactive and TCR activator inactive.
For COc1ccc(CNC(=O)C(=O)NCC(c2ccco2)S(=O)(=O)c2cccs2)cc1 (centres undefined) the results were A549 viability inactive, miR-21 reporter inactive, ClpP mod inactive and Nrf2 activator inactive.
Screening COc1ccc(CNC(=O)CCc2cn(Cc3cc(C)ccc3C)c3ccccc23)cc1OC returned A549 viability inactive, miR-21 reporter inactive, ClpP mod inconclusive, Nrf2 activator inactive and Nrf2 inh 23.1µM.
COC(=O)NC1CC2C=CC1C1C=CC21 (centres undefined) was read as ClpP mod inactive and Nrf2 activator inactive.
For CN(C)c1ccc(S(=O)(=O)N2CCC(Cc3ccccc3)CC2)cn1 the results were A549 viability inactive, ClpP mod inconclusive, Nrf2 activator inactive, Nrf2 inh 20.6µM and TCR activator inactive.
`Cn1c(=O)c(=O)n(C)c2cc(S(=O)(=O)N3CCC(Cc4ccccc4)CC3)ccc21` gave A549 viability inactive, miR-21 reporter inactive, ClpP mod inactive, Nrf2 activator inactive, Nrf2 inh inactive and TCR activator inactive.
`Cc1c(CCOC(=O)c2ccc(N3CCOCC3)c([N+](=O)[O-])c2)sc[n+]1CC#N` gave A549 viability inconclusive, miR-21 reporter inactive, Nrf2 activator inactive, Nrf2 inh 16.4µM and TCR activator inactive.
For CCOc1ccc(NC(=O)CN(C)C(=O)C2CC(=O)N(c3cccc(SC)c3)C2)cc1OCC (centres undefined) the results were A549 viability inactive, ClpP mod inactive, Nrf2 activator inactive, Nrf2 inh inactive and TCR activator inactive.
Screening Cc1ccc2oc3nc(C)c(C(=O)O)cc3c(=O)c2c1 returned A549 viability inactive, miR-21 reporter inactive, ClpP mod 28.2µM, Nrf2 activator inactive, Nrf2 inh inconclusive and TCR activator inactive.
For CC(=O)c1cc2c(=O)c3cc(C)ccc3oc2nc1C the results were A549 viability inactive, miR-21 reporter inactive, ClpP mod inactive, Nrf2 activator inactive, Nrf2 inh inconclusive and TCR activator inactive.
`CCCNC(=O)N1C2=NC(C(=O)OC)=C(C(=O)OC)[C@@H]3N(Cc4ccccc4)c4ccccc4[C@]23C[C@H]1CO` gave A549 viability inactive, ClpP mod inactive, Nrf2 activator inactive, Nrf2 inh inactive and TCR activator inactive.
`COCCn1cnc2c1c(=O)n(CC(=O)NCC(F)(F)F)c(=O)n2Cc1ccccc1` gave A549 viability inactive, miR-21 reporter inactive, Nrf2 activator inactive, Nrf2 inh inactive and TCR activator inactive.
For Cc1ccc(CNC(=O)c2cnn(-c3cccc(C)c3)c2C2CCN(C(=O)OC(C)(C)C)CC2)cc1 the results were A549 viability inactive, miR-21 reporter inconclusive, ClpP mod inactive, Nrf2 activator inactive and Nrf2 inh 18.4µM.
Cc1ccc(CNC(=O)c2cnn(-c3ccc(F)cc3F)c2C2CCN(C(=O)OC(C)(C)C)CC2)cc1 was read as A549 viability inconclusive, miR-21 reporter inconclusive, ClpP mod inactive, Nrf2 activator inactive and Nrf2 inh 16.4µM.
For CC(C)(C)OC(=O)N1CCC(c2c(C(=O)NCc3ccccc3)cnn2-c2ccccc2)CC1 the results were A549 viability inactive, miR-21 reporter inactive, ClpP mod inactive, Nrf2 activator inactive and Nrf2 inh inactive.
Screening O=C(CSc1nnc(COc2ccc(Cl)cc2)o1)Nc1nccs1 returned ClpP mod inactive and Nrf2 activator inactive.
CN(C(=O)CSc1nc2ccc(NC(=O)c3ccco3)cc2s1)c1ccccc1 was read as A549 viability inactive, miR-21 reporter inactive, ClpP mod inactive, Nrf2 activator inactive and Nrf2 inh inconclusive.
`CC(Sc1nnc(N)s1)C(=O)Nc1ccc2c(c1)OCO2` (centres undefined) gave A549 viability inactive, Nrf2 activator inactive, Nrf2 inh inactive and TCR activator inactive.
`Cc1csc(=O)n1CC(=O)OCC(=O)c1c(N)n(CC(C)C)c(=O)n(C)c1=O` gave A549 viability inactive, Nrf2 activator inactive, Nrf2 inh inconclusive and TCR activator inactive.
For O=C(OCc1c(F)cccc1Cl)c1cnc2ccccc2n1 the results were A549 viability inactive, miR-21 reporter inactive, Nrf2 activator inactive, Nrf2 inh inactive and TCR activator inactive.
Screening O=S(=O)(NCc1ccncc1)c1ccc(S(=O)(=O)NCC2CCCO2)cc1 (centres undefined) returned A549 viability inactive, miR-21 reporter inactive, ClpP mod inactive, Nrf2 activator inactive, Nrf2 inh 9.2µM and TCR activator inactive.
`O=C(c1ccc(S(=O)(=O)NCC2CCCO2)cc1)N1CCc2ccccc21` (centres undefined) gave A549 viability inactive, miR-21 reporter inactive, ClpP mod inactive, Nrf2 activator inactive, Nrf2 inh 25.9µM and TCR activator inactive.
`O=S(=O)(NCC1CCCO1)c1ccccc1` (centres undefined) gave A549 viability inactive, miR-21 reporter inactive, ClpP mod inactive, Nrf2 activator inactive, Nrf2 inh inactive and TCR activator inactive.
O=S(=O)(NCc1ccccc1)c1ccc(S(=O)(=O)NCC2CCCO2)cc1 (centres undefined) was read as A549 viability inactive, miR-21 reporter inactive, Nrf2 activator inactive, Nrf2 inh inactive and TCR activator inactive.
For O=C(Nc1ccc(F)cc1)c1ccc(S(=O)(=O)NCC2CCCO2)cc1 (centres undefined) the results were A549 viability 23.1µM, miR-21 reporter inactive, ClpP mod inactive, Nrf2 activator inactive, Nrf2 inh 23.1µM and TCR activator inactive.
Screening CC(=O)Nc1ccc(C(=O)Nc2ccc(S(=O)(=O)NCC3CCCO3)cc2)cc1 (centres undefined) returned A549 viability inactive, miR-21 reporter inactive, ClpP mod inactive, Nrf2 activator inactive, Nrf2 inh inactive and TCR activator inactive.
